Earlier results on 1 molecule are cited in patent US5231089A, “Method of improving oral bioavailability of carbamazepine” (priority 1992, dated 1993).

The conditions of this data set: 15 mg/mL hydroxypropyl-β-cyclodextrin (Uekama et al); cited from earlier work.

SMILES strings stand for the structures.

Regarding `O=[N+]([O-])O[C@H]1CO[C@H]2[C@@H]1OC[C@H]2O[N+](=O)[O-]`, the solubilization in water entry is on record as “improved solubilization”.
